Source: PubChem BioAssay AID1347071 (National Center for Advancing Translational Sciences (NCATS), 2019)
Only a part is listed here, and it is no random draw. Active and inactive are the calls of the source. Calls come from the whole dose curve; as a rule, active = well fitted activation curve with a large enough effect; inconclusive = small, poorly fitted or top-dose-only effect; inactive = no such curve, though single readings can be large or run the other way.

Experiment: qHTS for compounds that reverse cellular toxicity of Amyloid beta (A-beta) peptide in yeast: Primary Screen; note: nearly all actives have a fitted effect of over 55% in size
Details: yeast expressing A-beta42, growth rescue, OD600, 48 h, 0% DMSO, 100% iron-clioquinol control; at 46.1 µM (top of the series)
Excerpt: The A-beta peptide is produced by the processing of the amyloid precursor protein (APP) by two proteases, beta and gamma secretases. […] A-beta42 is regarded as the most amyloidogenic form due to its hydrophobicity; however, precisely how A-beta42 induces neurotoxicity is unclear. To understand further this biology and its potential therapeutic implications for human neurodegenerative disease, a quantitative high-throughput screen for compounds that reverse the cellular toxicity of the A-beta peptide was developed. A yeast based screen was used because it recapitulates the salient feature of protein mis-folding disorder accurately. This cell-based phenotypic screen provides a significant, unbiased advantage by letting the compounds and models inform us which proteins or pathways are most relevant. The ideal chemical candidates would therefore have activity in both our primary yeast and secondary neuronal toxicity assays, as well as in mouse models. […] For this luminescence assay, inhibition of A-beta rescues the toxic effect in the yeast cell, resulting in increase of signals and the desired phenotype of "Activator". […]
Two and a half microliter / well of yeast growth medium were dispensed in a 1536 assay plate. […] After 48 hr, the absorbance signal at 600 nm was obtained using the PerkinElmer ViewLux plate reader to assess yeast growth. […]

Row | SMILES | growth rescue
1 | CCC(=O)N(c1ccccc1)C1(COC)CCN(CCn2nnn(CC)c2=O)CC1 | inactive: -22.8%
2 | CCC(=O)N(c1ccccc1)C1(COC)CCN(CCc2cccs2)CC1 | inactive: 1.75%
